Laboratory results from patent US6514969B2, “β-amyloid inhibitors, processes for preparing them, and their use in pharmaceutical compositions” (Boehringer Ingelheim Pharma KG, priority 2000, dated 2003).

system: Aβ formation in human astroglioma cells (U 373) transfected with human APP751 (U373-K10); assay: Inhibition of Aβ formation in medium of APP751-overexpressing U373-K10 cells (ELISA); conditions: read-out: IC50 value, about 16 hours pre-incubation, then 4 hours supernatant, ELISA 6E10/6B10

Going from `O=c1[nH]c2ccccc2n1C1CCN(CCCc2cnc3ccccn23)CC1` to `O=c1[nH]c2ccccc2n1C1CCN(CCc2cnc3ccccn23)CC1`, the IC50 rises from 6 µM to 12 µM (2-fold).

`Cc1nc2ccccn2c1CCN1CCC(n2c(=O)[nH]c3ccccc32)CC1` gave an IC50 of 5 µM.

Only a part of the results on these compounds is given; other tests are left out.
